{"source": "patent US12599665B2", "about": "“Gene fusions for control of genetically modified cells” (A2 Biotherapeutics, Inc., priority 2020, dated 2026)", "origin": "cited, not measured here", "target": "T1, Progesterone receptor (NR3C3) (Homo sapiens, UniProt P06401)", "T1 sequence (P06401 1-933)": "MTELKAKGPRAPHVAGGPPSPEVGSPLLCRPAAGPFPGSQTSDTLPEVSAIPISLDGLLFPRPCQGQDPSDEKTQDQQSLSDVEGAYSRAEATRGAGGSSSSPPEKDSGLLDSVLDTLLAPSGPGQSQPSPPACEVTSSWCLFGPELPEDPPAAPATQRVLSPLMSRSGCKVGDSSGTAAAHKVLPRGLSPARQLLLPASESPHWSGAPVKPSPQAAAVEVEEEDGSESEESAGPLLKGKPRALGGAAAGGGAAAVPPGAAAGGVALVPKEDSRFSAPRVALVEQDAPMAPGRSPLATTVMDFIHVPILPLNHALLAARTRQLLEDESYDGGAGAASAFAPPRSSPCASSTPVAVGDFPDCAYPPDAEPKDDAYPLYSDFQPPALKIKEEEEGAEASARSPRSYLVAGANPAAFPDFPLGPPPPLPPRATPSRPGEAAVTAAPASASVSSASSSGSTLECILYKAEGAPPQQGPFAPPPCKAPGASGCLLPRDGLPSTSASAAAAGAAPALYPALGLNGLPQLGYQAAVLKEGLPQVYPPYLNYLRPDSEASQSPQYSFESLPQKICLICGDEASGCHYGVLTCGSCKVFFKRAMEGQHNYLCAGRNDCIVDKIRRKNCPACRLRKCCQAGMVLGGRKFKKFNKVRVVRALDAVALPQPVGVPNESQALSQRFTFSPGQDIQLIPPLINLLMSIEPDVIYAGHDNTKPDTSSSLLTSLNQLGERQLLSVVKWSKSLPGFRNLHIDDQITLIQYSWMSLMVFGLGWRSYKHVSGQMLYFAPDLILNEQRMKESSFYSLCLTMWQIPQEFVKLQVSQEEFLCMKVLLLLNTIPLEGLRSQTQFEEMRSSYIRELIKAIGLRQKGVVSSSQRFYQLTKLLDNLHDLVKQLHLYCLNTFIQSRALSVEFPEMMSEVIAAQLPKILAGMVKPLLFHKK", "conditions": "antagonist, Table 2; mifepristone: Mixed; cited from earlier work"}
{"compound": "CN(C)c1ccc([C@H]2C[C@]3(C)[C@@H](CC[C@]3(O)CCCO)[C@@H]3CCC4=CC(=O)CCC4=C32)cc1", "note": "[onapristone]", "values": [{"measurement": "pKi", "result": "(pKi 7.7),"}]}
